Most compounds without a hit are left out; they make up all but 2.2% or so of the library.
UUG fidelity: alters start codon recognition fidelity in yeast. S. cerevisiae UUG-firefly luciferase reporter, luminescence/redox ratio. AID 602363. activity score, % at 18.7 µM. hit rate 0.13% among 350,000;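 active = replicate mean at a twofold rise or more, about +100% in these data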;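 note: firefly luciferase made from a UUG start codon reports start codon fidelity; reporter light over untreated wells divided by growth signal over untreated wells; some hits fall short of that in this replicate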
SIRT5 inh: inhibitors of human sirtuin-5 desuccinylase | Q9NXA8 | Purified SirT5, succinyl-peptide AMC, trypsin-coupled fluorescence | inhibition, % at 15 µM | 330,000 tested, 1.1% active | AID 652115; in the data active means inhibition above about 15%; inconclusive means no clear call, values can overlap the other calls
S100A4 MyoIIA: inhibitors of human S100A4 binding to myosin IIA peptide; 360,000 tested, 0.14% active; P26447; S100A4/TAMRA-MyoIIA peptide fluorescence polarization; AID 652163; inhibition, % at 10.7 µM;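 active means mean inhibition of at least 70% across replicates, with every replicate also reaching that level; inconclusive means mean inhibition reaches 70% but some replicates fall short; inactive means mean inhibition below 70%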
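Material: S100A4 monomer protein / Buffer or medium: 50 mM HEPES pH 7.2, 10 mM CaCl2, 100 mM KCl / Times: 5 min incubation before reading / Benchmarks: neutral control DMSO, positive control TFP / Reagent: labelled myosin peptide probe, 5 nM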
FGF22 binding: binders of recombinant human FGF22 by thermal shift | Q9HCT0 | SYPRO orange fluorescence; percent of sucrose octasulfate shift, DMSO zero | activity (Tm shift, normalised), % at 9.99 µM | 340,000 tested, 1.5% active | AID 651658;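 active means mean Tm shift, scaled 0 neutral to 100 positive control, at about 1.3% or above, every replicate too, limit read from the data; inconclusive means no clear call, values can overlap the other calls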
ERp5 inh: inhibitors of human ERp5. Q15084. ERp5 insulin aggregation, absorbance 650 nm, 90 min. inhibition, % at 9.99 µM. 350,000 tested, 0.05% active. AID 651711;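 active means mean replicate inhibition above about 25%, with every replicate also reaching it, limit read from the data, passing the limit was not always enough; inconclusive means only one of those two criteria met; inactive means neither criterion met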
PDI turbidity: inhibitors of human protein disulfide isomerase | P07237 | PDI insulin aggregation turbidity, A650, 90 min | 350,000 tested, 0.052% active | inhibition, % at 10 µM | AID 588391;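 active means mean inhibition across replicates of 30% or more, whatever share of single replicates reach that level; inconclusive means mean inhibition below 30% while every single replicate reaches 30%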
* = called active by the depositor; ? = inconclusive; nt = not tested or not shown.

The opening 2 entries as a preview:
SMILES	UUG fidelity	SIRT5 inh	S100A4 MyoIIA	FGF22 binding	ERp5 inh	PDI turbidity
COc1ccc(OCC(=O)Nc2ccc(C(=O)Nc3ccccc3C(=O)O)cc2)cc1	-8	23*	-2	0	4	4
Cc1ccccc1NC(=O)c1ccc(OCC(=O)Nc2ccccc2F)cc1	nt	-1	3	43*	1	-4

All compounds of this part (from the top)
SMILES	UUG fidelity	SIRT5 inh	S100A4 MyoIIA	FGF22 binding	ERp5 inh	PDI turbidity
COc1ccc(OCC(=O)Nc2ccc(C(=O)Nc3ccccc3C(=O)O)cc2)cc1	-8	23*	-2	0	4	4
Cc1ccccc1NC(=O)c1ccc(OCC(=O)Nc2ccccc2F)cc1	nt	-1	3	43*	1	-4
COc1ccc(NC(=O)c2ccc(NC(=O)CN3CCN(c4ccccc4O)CC3)cc2)cc1	-10	nt	5	43*	8	6
CC(C)NC(=O)N(C)C[C@H]1Oc2cc(-c3cncnc3)ccc2S(=O)(=O)N([C@@H](C)CO)C[C@@H]1C	6	0	6	0	-2	nt
C[C@@H]1CN([C@H](C)CO)C(=O)c2cc(NC(=O)CCCN(C)C)ccc2O[C@@H]1CN(C)Cc1ccc2c(c1)OCO2	nt	-4	8	0	nt	nt
COc1ccc(C(=O)NNC(=O)c2cccc3ccccc23)cc1	-10	nt	-2	44*	1	-2
Nc1ccc(C2=Nc3cccc4cccc(c34)N2)cc1	5	4	-1	43*	0	-3
CO[C@H]1CN(C)C(=O)c2cc(NC(=O)Nc3ccccc3)ccc2OC[C@@H](C)N(CC2CC2)C[C@H]1C	8	-5	-5	nt	-2	nt
COCc1cc(C)nc(OCC(=O)N/N=C/c2ccc(OC)c(O)c2)c1C#N	nt	-1	5	44*	0	1
COc1ccc(C(=O)OCC(=O)N(Cc2ccccc2)Cc2ccccc2)c(O)c1	-17	nt	-2	43*	17	-3
COc1ccc2c3c([nH]c2c1)[C@H](CO)NCC31CCN(C(=O)Cc2ccccc2)CC1	nt	nt	29	0	-2	nt
Cc1ccc(C)c(NS(=O)(=O)c2c(C)nn(C)c2C)c1	-21	nt	nt	nt	nt	37*
Cc1nn(C)c(C)c1S(=O)(=O)Nc1ccc2c(c1)OCO2	-13	nt	nt	nt	nt	1
COCCn1c(SCc2ccc(F)cc2)nc2ccccc2c1=O	-9	-6	1	0	-3	-5
CCSc1nc2ccccc2c(=O)n1Cc1ccc(F)cc1	nt	-5	18	44*	-1	-4
O=C(Nc1cccn(Cc2c(Cl)cccc2Cl)c1=O)c1ccccc1Cl	-6	-18	-1	nt	2	0
CC(=O)Nc1cccn(Cc2c(Cl)cccc2Cl)c1=O	nt	0	-4	43*	-9	0
C[C@@H]1CN([C@@H](C)CO)C(=O)c2cc(NC(=O)CCC(F)(F)F)ccc2O[C@@H](C)CCCCO[C@@H]1CN(C)S(=O)(=O)c1ccccc1	3	1	-3	0	6	nt
C[C@@H]1CCCCO[C@H](CN(C)C(=O)CCCN(C)C)[C@@H](C)CN([C@H](C)CO)C(=O)c2cc(NC(=O)CCC(F)(F)F)ccc2O1	-12	0	-4	1.5*	-7	nt
C[C@@H]1CCCCO[C@@H](CN(C)C)[C@H](C)CN([C@@H](C)CO)C(=O)c2cc(NC(=O)CCC(F)(F)F)ccc2O1	2	17*	-5	0	-3	nt
C[C@@H]1CCCCO[C@@H](CN(C)S(=O)(=O)c2ccccc2)[C@@H](C)CN([C@H](C)CO)C(=O)c2cc(NC(=O)CCC(F)(F)F)ccc2O1	-3	-1	-13	15*	7	nt
C[C@H](CO)N1C[C@H](C)[C@H](CN(C)C)OCCCC[C@H](C)Oc2ccc(NC(=O)CCC(F)(F)F)cc2C1=O	0	-3	0	0	3	nt
C[C@@H]1CCCCO[C@@H](CN(C)CC2CC2)[C@@H](C)CN([C@H](C)CO)C(=O)c2cc(NC(=O)Cc3ccccc3)ccc2O1	nt	4	3	0	-5	nt
O=C(Nc1ccccc1)[C@H]1[C@H](CO)[C@H]2Cn3c(ccc(C4=CCCCC4)c3=O)[C@H]2N1Cc1ccccn1	nt	2	27	0	12	nt
COc1cccc(N2CCN(S(=O)(=O)c3cc4c(cc3C)N(C)CCO4)CC2)c1	-16	-1	-1	0	-3	nt
Cc1cc2c(cc1S(=O)(=O)N1CCN(c3cccc(C)c3C)CC1)OCCN2C	-12	1	153*	0	5	nt
Cc1noc(C)c1NC(=O)Nc1ccc2c(c1)C(=O)N([C@H](C)CO)C[C@@H](C)[C@H](CN(C)Cc1ccc(Cl)c(Cl)c1)O2	-5	14	-1	1	4	nt
COc1ccc([C@H]2C[C@@H](O)[C@H](n3cc(COC(=O)c4ccccc4)nn3)CN2C(=O)c2cccs2)cc1	-9	nt	1	43*	2	1
CCCCCCN1C[C@@H](O)[C@H](n2cc(COC(=O)c3ccccc3)nn2)C[C@@H]1c1ccc(C)cc1	-2	24*	-2	0	5	-3
CCCCCCN1C[C@@H](O)[C@H](n2cc(C3CC3)nn2)C[C@@H]1c1ccc(C)cc1	-27	-4	0	0	-1	3

Five compounds from above, ordered by their value in ERp5 inh, ascending.
SMILES | ERp5 inh
C[C@@H]1CCCCO[C@H](CN(C)C(=O)CCCN(C)C)[C@@H](C)CN([C@H](C)CO)C(=O)c2cc(NC(=O)CCC(F)(F)F)ccc2O1 | -7
CO[C@H]1CN(C)C(=O)c2cc(NC(=O)Nc3ccccc3)ccc2OC[C@@H](C)N(CC2CC2)C[C@H]1C | -2
O=C(Nc1cccn(Cc2c(Cl)cccc2Cl)c1=O)c1ccccc1Cl | 2
C[C@H](CO)N1C[C@H](C)[C@H](CN(C)C)OCCCC[C@H](C)Oc2ccc(NC(=O)CCC(F)(F)F)cc2C1=O | 3
CCCCCCN1C[C@@H](O)[C@H](n2cc(COC(=O)c3ccccc3)nn2)C[C@@H]1c1ccc(C)cc1 | 5

(more compounds)
SMILES	UUG fidelity	SIRT5 inh	S100A4 MyoIIA	FGF22 binding	ERp5 inh	PDI turbidity
CCCCCCN1C[C@H](O)[C@@H](n2cc(C3CC3)nn2)C[C@@H]1c1ccc(C)cc1	2	nt	-3	44*	1	1
COc1ccc(C2(O)CN(c3ccc(C)cc3)C3=[N+]2CCCC3)cc1 (stereo unspecified)	nt	-1	-4	43*	3	-12
C/C=C/c1ccc2c(c1)[C@@H]1[C@@H](CCN1S(=O)(=O)c1ccccc1C)[C@H](CO)N2	nt	10	-5	nt	5	nt
Cc1nn(-c2ccccc2)c(C)c1/C=C1\C(=O)N(C)C(=S)N1C	nt	2	-1	43*	?	1
COCC#Cc1ccc2c(c1)O[C@@H](CN(C)S(=O)(=O)c1ccc(C)cc1)[C@@H](C)CN([C@H](C)CO)S2(=O)=O	8	14	-9	-1	0	nt
CC(C)c1csc(CN2CCC(C(=O)Nc3cccc(-c4ccco4)c3)CC2)n1	nt	nt	-6	44*	-7	6
CCCC(=O)NC(=S)Nc1cccc(-c2nc3ncccc3o2)c1	nt	-2	7	43*	4	-2
O=C(Nc1ccc(O)cc1C(=O)O)c1ccc(NC(=O)c2ccco2)cc1	2	5	17	2.1*	-5	-2
O=C(Nc1ccc(N2CCN(C(=O)c3ccco3)CC2)cc1)c1ccccc1	-5	19*	1	0	-7	1
CC(=O)Nc1cccc(NC(=O)c2ccc(COc3ccccc3)cc2)c1	-9	nt	-3	43*	2	-5
O=C(Nc1cccc(NC(=O)c2ccco2)c1)c1cccc(Br)c1	-12	nt	16	43*	0	-9
CC(=O)Nc1ccc(NC(=O)c2ccc(COc3ccccc3)cc2)cc1	-16	-1	4	0	3	-24
C[C@@H]1CCCCO[C@@H](CN(C)C(=O)NC2CCCCC2)[C@@H](C)CN([C@H](C)CO)C(=O)c2cc(NC(=O)Nc3ccc4c(c3)OCO4)ccc2O1	-4	1	14	-1	-4	nt
